{
  "source": "patent US8613821B2",
  "about": "“Basic metal nitrate, process for producing the same and gas generating agent composition” (dated 2013)",
  "origin": "cited, not measured here",
  "system": "rat",
  "data": [
    {"substance": "diammonium salt of bitetrazole", "values": [
      {"measurement": "LD50 (oral-rat)", "value": "2,000 mg/kg"}
    ]}
  ]
}
